# Assay results taken from ChEMBL document CHEMBL1124242, “Renin inhibitors. Dipeptide analogues of angiotensinogen utilizing a dihydroxyethylene transition-state mimic at the scissile bond to impart greater inhibitory potency” (J Med Chem, 1988).
# What was measured:
# [1] = molecular target: T1, Renin (Homo sapiens, UniProt P00797); assay: In vitro Inhibitory activity against Renin at 10e-9 (M)
# In short: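 Purified human renin, procedure as reported earlier. Results given as percent inhibition at 10^-9 M.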
# [2] = molecular target: T2, Gastricsin (Homo sapiens) (UniProt P20142); assay: In vitro Inhibitory activity against human Gastricsin at 10e-5 (M)
# T2 sequence (whole entry): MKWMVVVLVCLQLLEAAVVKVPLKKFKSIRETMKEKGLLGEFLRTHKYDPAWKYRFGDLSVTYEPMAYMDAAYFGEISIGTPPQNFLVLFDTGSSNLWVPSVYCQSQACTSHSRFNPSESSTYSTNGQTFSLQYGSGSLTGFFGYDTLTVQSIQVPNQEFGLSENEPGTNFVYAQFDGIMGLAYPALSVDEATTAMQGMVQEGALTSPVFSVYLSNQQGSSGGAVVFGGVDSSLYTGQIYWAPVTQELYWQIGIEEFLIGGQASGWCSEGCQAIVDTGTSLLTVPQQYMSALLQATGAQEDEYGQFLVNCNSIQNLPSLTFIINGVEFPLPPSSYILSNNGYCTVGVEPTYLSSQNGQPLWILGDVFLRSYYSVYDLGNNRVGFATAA
# In short: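 Human gastricsin and pepsin isolated from gastric juice by IRC-50 ion exchange with pH elution. Hemoglobin substrate; gastricsin run at pH 3.1, pepsin at pH 2.0. After trichloroacetic acid precipitation, supernatant absorbance read at 280 nm. Results given as percent inhibition at 10^-5 M.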
# [3] = molecular target: T1, Renin; assay: In vitro Inhibitory activity against Renin at 10e-9 (M)
SMILES,inhibition [1],inhibition [2],inhibition [3]
CCOC(=O)N[C@@H](Cc1ccccc1)C(=O)N[C@@H](Cc1c[nH]cn1)C(=O)N[C@@H](CC1CCCCC1)[C@@H](O)[C@@H](O)CC(C)C,78%,0%,
CC(C)C[C@H](O)[C@H](O)[C@H](CC1CCCCC1)NC(=O)[C@H](C)NC(=O)[C@H](Cc1ccccc1)NC(=O)OC(C)(C)C,15%,,
CC(C)C[C@H](NC(=O)OC(C)(C)C)C(=O)N[C@@H](Cc1c[nH]cn1)C(=O)N[C@@H](CC1CCCCC1)[C@@H](O)[C@@H](O)CC(C)C,,,44%
CC(C)C[C@H](O)[C@H](O)[C@H](CC1CCCCC1)NC(=O)[C@H](Cc1ccccc1)NC(=O)[C@H](Cc1ccccc1)NC(=O)OC(C)(C)C,37%,,
